# Ab-95 light chain CDR variants: yeast mating affinities

Target: peptide PDVDLGDISGINAS, taken from heptad repeat 2 (HR2) of SARS-CoV-2 spike.

Parent scFv Ab-95: VH joined to VL by the linker GGGGSGGGGSGGGGS. Changes lie in the light chain CDRs alone.
VH: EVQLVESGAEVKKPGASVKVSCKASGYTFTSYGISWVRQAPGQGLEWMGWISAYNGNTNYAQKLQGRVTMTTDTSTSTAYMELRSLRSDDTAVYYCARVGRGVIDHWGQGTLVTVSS
VL: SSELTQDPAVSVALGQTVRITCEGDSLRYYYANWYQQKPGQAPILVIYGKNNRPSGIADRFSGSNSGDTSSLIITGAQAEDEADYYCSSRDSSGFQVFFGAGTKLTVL

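The starting antibody came from a phage panning campaign against this peptide. AAYL52 was designed without a model: most single CDR substitutions and a random sample of double and triple ones. AlphaSeq pools MATa yeast showing the antibodies with MATalpha yeast showing the peptide. The frequency of each diploid, read from paired DNA barcodes, reflects how well the two displayed proteins bind. Scores were corrected for input abundance and mapped to Kd with protein pairs of known affinity run in the same pool. Each pool was mated in three replicate cultures.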

Each variant is given by its three light chain CDRs, as the data file delimits them; those of the parent are EGDSLRYYYAN, GKNNRPS, SSRDSSGFQVF. Values are log10 of the apparent Kd in nM; lower means stronger binding. The mean shown is taken over the replicates in which the pair was detected. An entry "ND" has no value in the source: the pair was not observed among the diploids in that replicate. This suggests poor binding but is not conclusive. Parent in this assay: reference entry 2.31, copy in this library 2.25. Nonspecific signal, from three strains lacking the peptide, appeared in 28% of pairings of library AAYL52, centred on 3.91 (5% of these signals below 2.90); values are not corrected for it. The control count says in how many pairings with the empty strains this scFv gave a signal.

With EGDSLRYYQAN, GKNNRPL, SSRDSSGFQVQ the result was 1.75, 1.93, 0.68 (mean 1.45; controls 0 of 9).
With TGDSVRYYYAN, GKNNRPS, SSRDSSGGQVF the result was 2.89, 3.63, 2.85 (mean 3.12; controls 2 of 9).
With EGDSFRSYKAN, GKNNRPS, SSRDSSGFQVF the result was 2.86, 3.51, ND (mean 3.18; controls 1 of 9).
With VGDSLPYYYAN, GKNNRPS, SSRDSSGFQVF the result was 1.70, 1.60, 1.23 (mean 1.51; controls 4 of 9).
With EGDSLRYYYAN, GKNNRNS, SSRDSSGDQVA the result was 2.25, 2.23, 2.32 (mean 2.27; controls 1 of 9).
With EGDSLCGYYAN, GKNNRPS, SSRDSKGFQVF the result was 3.21, 3.24, 3.02 (mean 3.16; controls 1 of 9).
With EGDSLRYYYAN, GKNPRPS, SSRCSWGFQVF the result was 3.55, 4.66, 4.16 (mean 4.12; controls 6 of 9).
With EGDSLRNYYAN, WKNNRPS, SSADSSGFQVF the result was 5.26, 2.93, ND (mean 4.10; controls 3 of 9).
With EGDSLRYRMAN, GKNNRPS, SDRDSSGFQVF the result was 3.00, 2.83, 2.94 (mean 2.92; controls 3 of 9).
With EGDSLRYYYAN, GKTLRPS, SSHDSSGFQVF the result was ND, 4.59, 3.86 (mean 4.22; controls 2 of 9).
With EGDSLRNYYTN, GKNNRPA, SSRDSSGFQVF the result was 1.70, 1.55, 1.38 (mean 1.54; controls 2 of 9).
With EGDSLRCYYAN, GKNNRPS, DSRDSSGGQVF the result was 3.69, 4.73, 2.59 (mean 3.67; controls 4 of 9).
With EVDSLRYYYAN, GKNRRPS, SSRDSSGFGVF the result was ND, 3.94, 4.03 (mean 3.99; controls 2 of 9).
With EGDSLRYYIAN, SKNNRPS, SSRDSLGFQVF the result was ND, 3.32, ND (controls 1 of 9).
With EGDSLRYGYAN, GKNNRPS, SDRDSFGFQVF the result was 2.73, 3.12, 2.21 (mean 2.69; controls 1 of 9).
With EGHMLRYYEAN, GKNNRPS, SSRDSSGFQVF the result was 2.98, 2.83, 2.98 (mean 2.93; controls 3 of 9).
With RGQSLRYYYAN, GKNNRPS, SSRDSSGFQVF the result was 1.98, 1.59, 1.69 (mean 1.75; controls 2 of 9).
With EGDSGRYFYAN, GLNNRPS, SSRDSSGFQVF the result was 4.16, 5.06, ND (mean 4.61; controls 2 of 9).
With YGDSLRYNYAN, GKDNRPS, SSRDSSGFQVF the result was 0.95, 0.88, 0.12 (mean 0.65; controls 4 of 9).
With EGFSLRYYYAN, GKNNRPA, SSRDSSGFQVP the result was 2.40, 2.75, 2.75 (mean 2.63; controls 3 of 9).
With EGDLLRYYYAN, GKNNRPQ, SSRDSSGFQVF the result was 5.75, 3.73, ND (mean 4.74; controls 5 of 9).
With KGDSLRTYYAN, GNNNRPS, SSRDSSGFQVF the result was 1.53, 1.43, 1.14 (mean 1.37; controls 6 of 9).
With EGDQLRYYYAN, GKNNRAS, SSRDNSGFQVF the result was 3.41, 5.66, ND (mean 4.54; controls 3 of 9).
With EGDSLRYYKAH, GKNNRPS, SSHDSSGFQVF the result was ND, 5.66, ND (controls 1 of 9).
With EGDSLRQYYAN, GKDNRPS, SSRDSSGFQLF the result was 3.69, 3.02, 3.58 (mean 3.43; controls 0 of 9).
With EGDMLRYYYAN, GKNNHPS, SSRDSFGFQVF the result was 3.32, 3.95, 3.76 (mean 3.68; controls 1 of 9).
With EGDSLRYYYAN, GKNNRPS, SSRTSSGFQVW the result was 2.66, 3.08, 3.07 (mean 2.94; controls 1 of 9).
With EMDSLRYYYAN, DKNNRPS, LSRDSSGFQVF the result was 3.91, 4.40, ND (mean 4.15; controls 5 of 9).
With EGDSLRYYYAN, GKNNRPS, SSRDSSGFQVI the result was 2.81, 2.74, 2.29 (mean 2.61; controls 4 of 9).
With EGDSLRYYYEN, GKNNRPS, GSRDPSGFQVF the result was 3.50, ND, ND (controls 5 of 9).
With EGDSLNYYYAN, GKNNRPS, SSRDMSGFQVP the result was 3.07, 2.81, 3.32 (mean 3.07; controls 4 of 9).
With EGDSIRYYYAN, GKNNRPS, ISRDSEGFQVF the result was 4.96, 4.64, ND (mean 4.80; controls 2 of 9).

Data: MIT Lincoln Laboratory AlphaSeq set, Engelhart et al. 2022, doi:10.1038/s41597-022-01779-4, as distributed in FLAb.